Experiments:
Format in all cases: functional
Parameters in all cases: scale not given: the % may be the effect or the level left
[1] = DPPH radical scavenging activity assessed as reducing ability at 0.05 mM after 20 mins
Procedure, shortened: (§1)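 DPPH in absolute ethanol mixed with equal volume of compound in DMSO (10 mM stock; final 0.05, 0.1, 0.2 mM); absorbance at 517 nm after 20 and 60 min at room temperature; % reducing ability. At least triplicate.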

[2] = DPPH radical scavenging activity assessed as reducing ability at 0.1 mM after 20 mins; procedure, shortened: as §1
[3] = DPPH radical scavenging activity assessed as reducing ability at 0.1 mM after 60 mins; procedure, shortened: as §1

`CC(Cc1ccc(O)c(O)c1)C(C)Cc1ccc(O)c(O)c1` (stereo not drawn) [NORDIHYDROGUAIARETIC ACID] showed an Activity [1] of 84.8%, an Activity [2] of 81% and an Activity [3] of 82.6%.

Source: ChEMBL document CHEMBL1649375, “Design, synthesis and pharmacobiological evaluation of novel acrylic acid derivatives acting as lipoxygenase and cyclooxygenase-1 inhibitors with antioxidant and anti-inflammatory activities” (Eur J Med Chem, 2011)
